# Literature values as cited in patent US20090186809A1, “USE OF VALPROIC ACID FOR THE TOPICAL TREATMENT OF MILD TO MODERATE ACNE VULGARIS” (TOPOTARGET GERMANY AG, priority 2006, published 2009).
# Conditions: metastatic renal cell carcinoma, 60/329 patients; cited from earlier work
substance,measurement,value
interleukin 2: cytokine secreted by activated T cells with antitumor activity,patients in whom antithyroid antibodies were detected,18%
